Data: US7888386B2, “3-(phenoxyphenylmethyl)pyrrolidine compounds” (Theravance, Inc., priority 2008, dated 2011)

Sequences of proteins named here, by UniProt entry; tags and fusion partners are left off.
UniProt P31645, whole entry: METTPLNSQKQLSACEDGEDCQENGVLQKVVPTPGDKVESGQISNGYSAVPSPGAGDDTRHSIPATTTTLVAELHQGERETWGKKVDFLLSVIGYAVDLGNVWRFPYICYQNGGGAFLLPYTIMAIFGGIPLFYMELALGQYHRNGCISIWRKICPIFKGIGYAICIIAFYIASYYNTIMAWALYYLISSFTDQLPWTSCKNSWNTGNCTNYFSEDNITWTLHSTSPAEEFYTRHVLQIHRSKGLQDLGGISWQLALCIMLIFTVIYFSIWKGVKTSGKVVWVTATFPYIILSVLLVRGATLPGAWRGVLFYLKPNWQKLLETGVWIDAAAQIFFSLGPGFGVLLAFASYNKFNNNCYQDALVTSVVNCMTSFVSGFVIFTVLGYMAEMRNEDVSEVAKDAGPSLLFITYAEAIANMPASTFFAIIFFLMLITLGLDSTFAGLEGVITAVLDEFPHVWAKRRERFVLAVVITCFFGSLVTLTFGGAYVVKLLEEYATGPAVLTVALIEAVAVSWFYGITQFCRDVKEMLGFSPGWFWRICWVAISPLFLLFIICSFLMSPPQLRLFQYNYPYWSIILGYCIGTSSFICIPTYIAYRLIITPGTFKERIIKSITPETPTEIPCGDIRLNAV
UniProt P23975, whole entry: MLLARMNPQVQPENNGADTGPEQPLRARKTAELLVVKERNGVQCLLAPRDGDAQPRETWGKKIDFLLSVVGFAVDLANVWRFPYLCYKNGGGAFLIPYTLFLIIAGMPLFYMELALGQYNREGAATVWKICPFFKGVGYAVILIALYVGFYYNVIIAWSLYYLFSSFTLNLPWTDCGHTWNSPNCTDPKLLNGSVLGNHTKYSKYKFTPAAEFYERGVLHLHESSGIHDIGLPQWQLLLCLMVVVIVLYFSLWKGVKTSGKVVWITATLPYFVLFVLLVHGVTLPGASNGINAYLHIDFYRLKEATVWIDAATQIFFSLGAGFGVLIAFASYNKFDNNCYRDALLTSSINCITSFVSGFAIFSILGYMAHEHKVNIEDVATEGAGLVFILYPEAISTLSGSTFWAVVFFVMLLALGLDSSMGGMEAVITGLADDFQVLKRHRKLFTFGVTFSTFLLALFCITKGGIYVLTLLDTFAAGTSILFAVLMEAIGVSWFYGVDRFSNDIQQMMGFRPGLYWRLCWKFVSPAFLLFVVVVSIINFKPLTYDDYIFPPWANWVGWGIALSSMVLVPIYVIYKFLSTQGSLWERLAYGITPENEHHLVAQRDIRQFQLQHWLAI

Tests used:
hSERT = hSERT (Homo sapiens, UniProt P31645)
hNET = hNET (Homo sapiens, UniProt P23975)
[1] = ratio of SERT Ki to NET Ki from binding assays
[2] = ratio of SERT Ki to NET Ki (binding)
[3] = ratio of binding Ki at hSERT to Ki at hNET, rounded off to the nearest tenth
[4] = membranes of HEK-293 cells expressing hNET, 1.0 nM 3H-nisoxetine

| SMILES | SERT Ki/NET Ki (hSERT; [1]) | NET pKi (hNET; hNET binding assay) | SERT Ki/NET Ki (hSERT; [2]) | NET pKi (hNET; hNET binding) | further results |
| --- | --- | --- | --- | --- | --- |
| Cc1cc(F)cc([C@@H](Oc2c(Cl)cccc2Cl)[C@H]2CCNC2)c1 (relative stereo) | 1.6 | – | – | – | – |
| Fc1cc(F)cc([C@@H](Oc2c(Cl)cccc2Cl)[C@@H]2CCNC2)c1 | 2.5 | 8.9 | – | – | – |
| Fc1cc(Cl)cc(O[C@@H](c2ccccc2)[C@H]2CCNC2)c1Cl | – | – | 0.5 | 8.1 | – |
| Cc1cccc(C(Oc2c(Cl)cccc2Cl)C2CCNC2)c1 (centres unmarked) | 2 | 8.3 | – | – | – |
| COc1ccccc1O[C@@H](c1ccc(C#N)cc1)[C@H]1CCNC1 | – | – | – | – | SERT Ki/NET Ki (hSERT; [3]): 5; NET pKi (hNET; [4]): 8.6 |
| COc1c(F)cc(F)cc1O[C@@H](c1ccccc1)[C@H]1CCNC1 | – | – | 5 | 8.3 | – |
| Fc1c(Cl)ccc(Cl)c1O[C@H](c1ccccc1)[C@@H]1CCNC1 | – | – | 0.5 | 9.3 | – |
| COc1ccc(Cl)c(O[C@@H](c2ccccc2)[C@H]2CCNC2)c1F | – | – | 5 | 9 | – |
| Cc1ccc(Cl)cc1O[C@@H](c1ccccc1)[C@H]1CCNC1 | 0.3 | – | – | – | – |
| Fc1cc(F)cc([C@@H](Oc2c(Cl)cccc2Cl)[C@H]2CCNC2)c1 (relative stereo) | 1 | 8.2 | – | – | – |
| COc1cccc(F)c1O[C@H](c1cc(F)cc(F)c1)[C@@H]1CCNC1 | 1.6 | 8.7 | – | – | – |
| Clc1ccc([C@H](Oc2c(Cl)cccc2Cl)[C@H]2CCNC2)cc1 (relative stereo) | 1.6 | 8.7 | – | – | – |
| Cc1cc(F)cc([C@H](Oc2c(Cl)cccc2Cl)[C@H]2CCNC2)c1 (relative stereo) | 1 | 8.9 | – | – | – |
| Fc1c(Cl)ccc(Cl)c1O[C@@H](c1ccccc1)[C@H]1CCNC1 | – | – | 3.2 | 9.5 | – |
| COc1ccccc1O[C@@H](c1cccc(C#N)c1)[C@H]1CCNC1 | – | – | – | – | SERT Ki/NET Ki (hSERT; [3]): 100; NET pKi (hNET; [4]): 9.1 |
| Fc1cc(Cl)cc([C@H](Oc2c(Cl)cccc2Cl)[C@H]2CCNC2)c1 (relative stereo) | 3.2 | 9.2 | – | – | – |
| Fc1cc(F)cc([C@H](Oc2c(F)cccc2Cl)[C@H]2CCNC2)c1 | 50 | 9.8 | – | – | – |
| NC(=O)c1ccc(C(Oc2c(Cl)cccc2Cl)C2CCNC2)cc1 (centres unmarked) | 1.3 | 8.1 | – | – | – |
| Clc1cccc([C@H](Oc2c(Cl)cccc2Cl)[C@H]2CCNC2)c1 (relative stereo) | 1.3 | 8.2 | – | – | – |
| Fc1cc(F)cc([C@@H](Oc2c(Cl)ccc(Cl)c2Cl)[C@@H]2CCNC2)c1 | – | – | 0.3 | 9.2 | – |
| N#Cc1ccc([C@H](Oc2c(Cl)cccc2Cl)[C@H]2CCNC2)cc1 | 1 | 8.8 | – | – | – |
| Clc1ccccc1C(Oc1c(Cl)ccc(Cl)c1Cl)C1CCNC1 (centres unmarked) | – | – | 0.2 | 8.8 | – |
| Fc1ccc(Cl)c(O[C@@H](c2ccccc2)[C@H]2CCNC2)c1 | 32 | 9 | – | – | – |

Where two headings read alike, the source gives them in different places.
